In ChEMBL document CHEMBL1152978 (J Med Chem, 2009):

Each compound was assayed on Mus musculus (assay: Toxicity in Swiss mouse assessed as occurrence of mydriasis at 30 mg/kg, ip up to 24 hrs). Conditions: in vivo.

SMILES	Activity
O=C(O[C@H]1C[N+]2(CCc3ccccc3)CCC1CC2)C(O)(c1cccs1)c1cccs1.[Br-]	Toxic

These compounds were tested on Mus musculus (assay: Toxicity in Swiss mouse assessed as neurobiological state and occurrence of xerostomia at 30 mg/kg, ip up to 24 hrs). Conditions: in vivo.

SMILES	Activity
CCCCCCC[N+]12CCC(CC1)[C@@H](OC(=O)C1(O)c3ccccc3-c3ccccc31)C2.[Br-]	Non-toxic
C[N+]12CCC(CC1)[C@@H](OC(=O)C(O)(c1cccs1)c1cccs1)C2.[Br-]	Non-toxic
O=C(O[C@H]1C[N+]2(CCc3ccccc3)CCC1CC2)C(O)(c1cccs1)c1cccs1.[Br-]	Non-toxic
O=C(O[C@H]1C[N+]2(Cc3ccccc3)CCC1CC2)C(O)(c1cccs1)c1cccs1.[Br-]	Non-toxic
CCCCCCC[N+]12CCC(CC1)[C@@H](OC(=O)C(O)(c1cccs1)c1cccs1)C2.[Br-]	Non-toxic
